Bioassay records as filed in PubChem.
A549 tox = counter-screen for Nrf2 inhibitors: cytotoxicity in A549 cells | AID 504648 | 0.16% of 390,000 active | Potency, µM (highest dose often 46 µM), hits mostly inhibitors | A549 ARE-Fluc cells, CellTiter-Fluor viability, 18-24 h
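Cytotoxicity counterscreen: CellTiter-Fluor fluorescence was measured in A549 ARE_Fluc cells after 18-24 h of compound exposure in a concentration series. The subsequent BugLite luminescent read reports ARE-luciferase activity.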
Nrf2 activator = activators of Nrf2 (ARE) signaling | Potency, µM (top dose mostly 46.1 µM), usual class: activators | 0.31% of 410,000 active | AREc32 ARE-luciferase reporter (MCF7-derived line), luminescence, 24 h; further: nearly all actives have a fitted effect of over 65% in size
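Each well held 1000 AREc32 cells, which were incubated with compound for 24 hr at 37 deg C after overnight attachment, and ARE reporter activity was quantified by firefly luciferase luminescence.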
Rango-impB inh = Rango-importin beta binding inhibition; Q14974; Rango CFP/YFP FRET sensor + importin beta, 45 min; Potency, µM (series often up to 92.2 µM); 0.031% of 340,000 active; AID 540263; calls by dose curve; further: nearly all actives have a fitted effect of over 15% in size
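Inhibition scored from the CFP 486 nm/YFP 530 nm FRET ratio 45 min after adding 0.125 microM importin beta to 50 nM Rango biosensor preincubated 5 min with compound (room temperature, PBS with DTT, Tween-20, BSA). No-importin wells as positive control.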
Rango dissoc inh = inhibitors of RanGTP-induced Rango-importin beta complex dissociation; O95149+P62826; Potency, µM (titrated, usually from 46.1 µM); 0.071% of 340,000 active; Biochemical FRET Rango-importin beta, RanGTP-induced dissociation; calls by dose curve; further: nearly all actives have a fitted effect of over 45% in size
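Two FRET readings bracket the reaction: one 5 min after compound meets Rango–importin beta, another 45 min after RanGTP-RCC1 (0.6 uM Ran, 0.2 uM RCC1, 2 mM GTP) is added. Only the second defines inhibition.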
Nrf2 inh = blocks Nrf2 signaling | A549 ARE-Fluc reporter, luciferase luminescence, 18-24 h | Potency, µM (highest dose often 46 µM), usual class: inhibitors | 2.1% of 360,000 active | AID 504444; further: nearly all actives have a fitted effect of over 60% in size
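Concentration-response testing used A549 ARE_Fluc cells at 5000 cells/well. Following an 18-24 h compound incubation, viability was read by fluorescence (Ex 405/Em 525) and luciferase output by luminescence.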
Numbers stand for hits; - = inactive; ? = inconclusive; . = no result given; [ ] = dose if it differs, or a comment. Rows were chosen to be rich in hits. Some 2.3% of all compounds tested hit in one or more screens of this group. Unless noted, the call rests on the fitted dose curve; in most records, active means well fitted curve in the direction sought with a large enough effect; inconclusive means small, poorly fitted or top-dose-only effect, or another doubt; inactive means no such curve, though single readings can be large; an effect the other way counts as inactive or inconclusive.

SMILES | A549 tox | Nrf2 activator | Rango-impB inh | Rango dissoc inh | Nrf2 inh
Fc1cccc(Cl)c1Cn1nnc2c(NCc3ccncc3)ncnc21 | - | - | ? | - | 23µM
CCOc1ccc(C2CC(=O)Nc3c2c(=O)[nH]c2ncnn32)cc1 (centres undefined) | - | - | . | . | -
COC(=O)c1ccc(NC(=O)c2ccc(NS(=O)(=O)c3cccc4cccnc34)cc2)cc1 | - | - | - | - | -
O=C(Nc1ccccc1O)c1ccc(NS(=O)(=O)c2cccc3cccnc23)cc1 | - | 11µM | - | - | -
O=C(Nc1ncccc1O)c1ccc(S(=O)(=O)Nc2ccccc2)cc1 | - | 11µM | - | - | -
Cn1cc(CN2CCCC(C(=O)Nc3cccc(-c4cc5ccccc5[nH]4)c3)C2)cn1 (centres undefined) | ? | - | - | - | 23µM
Cc1ccsc1CNc1ncnc2ccc(-c3ccc4c(c3)OCO4)cc12 | - | . | . | . | ?
Cc1nc(N/N=C/c2ccc(O)cc2O)cc(N2CCOCC2)n1 | - | - | ? | - | 21µM
COc1cccc(/C=C/C(=O)Nc2ccc(N3CCOCC3)cc2)c1OC | - | - | - | - | ?
COc1ccccc1/C=C/C(=O)Nc1ccc(N2CCOCC2)cc1 | - | - | - | - | 12µM
CC(C)Sc1nc2c(cnn2-c2ccccc2)c(=O)[nH]1 | - | - | - | - | -
O=c1[nH]c(/C=C/c2ccc(OC(F)F)cc2)nc2c1cnn2-c1ccccc1 | - | - | - | - | 16µM
CCOC(=O)CC(=O)CSc1nc2c(c(-c3cccs3)c1C#N)CCC2 | - | - | ? | 21µM | ?
CCC1CCc2sc(C(=O)NCC(c3ccc(OC)cc3)N3CCCC3)cc2C1 (centres undefined) | - | - | 58µM | - | -
COc1ccc(C(CNC(=O)c2oc3ccc(Br)cc3c2C)N2CCCCC2)cc1 (centres undefined) | - | - | - | 1.5µM | -
COc1ccc(C(CNC(=O)c2oc3cc(Br)ccc3c2C)N2CCCCC2)cc1 (centres undefined) | - | - | - | - | -
CC1CC(C)CN(S(=O)(=O)c2ccc(C(=O)NCc3ccc4c(c3)OCO4)cc2)C1 (centres undefined) | - | - | - | - | 10µM
N#CN1CCC(NC(=O)c2cccc(C(F)(F)F)c2)CC1 | - | . | . | . | -
COc1ccc(NC(=O)C2CCCN(S(=O)(=O)c3ccc(Br)s3)C2)cc1 (centres undefined) | - | - | . | . | ?
O=C(NCc1ccco1)c1ccc(COc2cccc3ccccc23)cc1 | - | - | - | - | 16µM
Cc1ccn2c(Nc3ccc(C(C)C)cc3)c(-c3cccs3)nc2c1 | - | - | . | . | ?
Cc1cccc(NC(=O)CSc2nc(COc3ccccc3)nc3ccccc23)c1C | ? | - | - | - | 26µM
CC(C)(C)C1CCc2c(sc3nc(-c4cc5cc(Cl)ccc5oc4=O)[nH]c(=O)c23)C1 (centres undefined) | - | - | . | . | -
Cc1nc2nc(SCC(=O)NCCc3ccccc3)nn2c(C)c1Cc1c(F)cccc1Cl | - | - | . | . | -[9.27 µM]
Cc1nnc(-c2cccc(Br)c2)c2cn(-c3ccc(Br)cc3)nc12 | - | - | - | - | 15µM
SMILES | A549 tox | Nrf2 activator | Rango-impB inh | Rango dissoc inh | Nrf2 inh
Cc1cc(OCC(O)CNC(C)c2ccccc2)ccc1C(C)C (centres undefined) | - | - | - | - | -
CN(C(=O)Cn1cnc2onc(-c3ccc(F)cc3)c2c1=O)c1ccccc1Cl | - | - | . | . | ?
CCOc1ccc(-c2nc(Cn3c(=O)cc(-c4ccccc4)c4c(C)nn(C)c43)c(C)o2)cc1OC | - | - | . | . | ?
CCOc1ccccc1-n1c(CN2CCN(C(=O)c3ccco3)CC2)nc2ccccc2c1=O | - | - | - | - | 16µM
Cc1cc(N2CCN(C/C=C/c3ccccc3)CC2)n2ncnc2n1 | - | - | - | - | ?
COc1cccc(N2CCN(c3ncccn3)CC2)c1 | - | - | - | - | ?
Cc1cc(N2CCN(c3ccccc3)CC2)n2ncnc2n1 | - | - | - | - | 21µM
c1ccc(N2CCN(c3c4c(nc5ncnn35)CCC4)CC2)cc1 | - | - | - | - | 12µM
FC(F)(F)c1ccc(N2CCN(c3cc(-c4ccccc4)nc4ncnn34)CC2)nc1 | ? | - | - | - | 15µM
COc1cccc(N2CCN(c3c4c(nc5ncnn35)CCC4)CC2)c1 | - | - | - | - | 13µM
FC(F)(F)c1cccc(Nc2cc(-c3ccccc3)nc3ncnn23)c1 | - | - | - | - | -
CC1CCCCC1NC(=O)C1CCN(c2c3c(nc4ncnn24)CCC3)CC1 (centres undefined) | - | - | - | - | -
COc1ccc(OC)c(NC(=O)CN2C(=O)COc3ccc(S(=O)(=O)NC4CCCC4)cc32)c1 | - | - | . | . | .
CS(=O)(=O)c1ccc(NC(=O)c2cccc(S(=O)(=O)N3CCN(Cc4ccccc4)CC3)c2)cc1 | - | - | - | - | 13µM
CCOc1ccc(CN2CCN(S(=O)(=O)c3ccc(NC(C)=O)cc3)CC2)cc1 | - | - | - | - | 21µM
O=S(=O)(c1ccc(NC(=S)NCc2cccnc2)cc1)N1CCCCC1 | - | - | - | - | 23µM
O=C(Nc1ccc(S(=O)(=O)N2CCN(Cc3ccccc3)CC2)cc1)c1cnccn1 | - | - | - | - | 4.1µM
Cc1ccc(-c2nnc(Nc3ccc(O)cc3)c3ccccc23)cc1S(=O)(=O)NC(C)(C)CO | - | - | . | . | -
CCCOc1ccc(C2C(=O)N(C3CCCCCC3)CC(=O)N2Cc2ccc(OC)cc2)cc1OC (centres undefined) | - | - | . | . | .
Cc1cccc(-c2nc3c(c(SCC(=O)N4CCCC4)n2)COC(C)(C)C3)c1 | - | - | - | - | -
CC(C)(C)c1ccccc1Nc1nc(C#N)nc(NC2CCCC2)n1 | - | . | . | . | ?
CN(C)C(=O)c1ccc(NC(=O)c2cccc(S(=O)(=O)N3CCN(Cc4ccccc4)CC3)c2)cc1 | - | - | - | - | 18µM
CN(CC(=O)Nc1ccc(Cl)cc1)C(=O)c1cccc(S(=O)(=O)NCc2ccccc2)c1 | - | - | ? | - | -
CN(CC(=O)Nc1ccc(Cl)cc1)C(=O)c1cccc(S(=O)(=O)N2CCN(Cc3ccccc3)CC2)c1 | ? | - | - | - | 13µM
Cc1cc2c(c(=O)o1)C1(C(=O)N(CC(=O)O)c3ccccc31)C(C#N)=C(N)O2 (centres undefined) | - | - | ? | 15µM[inhibitor] | -
CCCCN=C1NC(=O)C(CC(=O)NCCc2ccc(OC)cc2)S1 (centres undefined) | - | - | - | - | -
Cc1ccc(C(=O)CCC(=O)OCC(=O)N(CC(C)C)c2c(N)n(Cc3ccccc3)c(=O)[nH]c2=O)cc1 | - | - | - | - | -
